Laboratory results taken from ChEMBL document CHEMBL4325822, “Discovery of a tetrazolyl β-carboline with in vitro and in vivo osteoprotective activity under estrogen-deficient conditions” (Medchemcomm, 2018).

Sequences of proteins named here, by UniProt entry; tags and fusion partners are left off. A change or cut given only in a name is not applied to a line headed by its entry.
UniProt Q9QY78: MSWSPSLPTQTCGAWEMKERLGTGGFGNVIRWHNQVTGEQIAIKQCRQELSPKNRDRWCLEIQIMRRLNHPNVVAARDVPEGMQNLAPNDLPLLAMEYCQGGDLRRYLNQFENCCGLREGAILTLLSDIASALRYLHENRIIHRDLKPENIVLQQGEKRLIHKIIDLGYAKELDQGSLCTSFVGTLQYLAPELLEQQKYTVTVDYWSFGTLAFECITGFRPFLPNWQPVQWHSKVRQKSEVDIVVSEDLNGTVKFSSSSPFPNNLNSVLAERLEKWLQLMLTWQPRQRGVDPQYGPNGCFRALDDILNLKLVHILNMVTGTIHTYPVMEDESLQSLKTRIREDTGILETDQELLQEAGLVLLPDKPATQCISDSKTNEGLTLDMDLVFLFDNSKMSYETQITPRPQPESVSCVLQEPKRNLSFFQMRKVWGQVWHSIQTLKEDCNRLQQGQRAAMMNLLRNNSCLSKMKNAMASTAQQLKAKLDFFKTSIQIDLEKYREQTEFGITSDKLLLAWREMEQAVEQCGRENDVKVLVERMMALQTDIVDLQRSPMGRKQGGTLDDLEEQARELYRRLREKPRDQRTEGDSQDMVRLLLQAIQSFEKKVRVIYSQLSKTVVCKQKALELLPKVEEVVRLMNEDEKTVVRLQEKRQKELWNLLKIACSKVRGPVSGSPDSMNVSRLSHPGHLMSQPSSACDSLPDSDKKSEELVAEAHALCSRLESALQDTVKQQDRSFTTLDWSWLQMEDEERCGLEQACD
UniProt Q6TMG5: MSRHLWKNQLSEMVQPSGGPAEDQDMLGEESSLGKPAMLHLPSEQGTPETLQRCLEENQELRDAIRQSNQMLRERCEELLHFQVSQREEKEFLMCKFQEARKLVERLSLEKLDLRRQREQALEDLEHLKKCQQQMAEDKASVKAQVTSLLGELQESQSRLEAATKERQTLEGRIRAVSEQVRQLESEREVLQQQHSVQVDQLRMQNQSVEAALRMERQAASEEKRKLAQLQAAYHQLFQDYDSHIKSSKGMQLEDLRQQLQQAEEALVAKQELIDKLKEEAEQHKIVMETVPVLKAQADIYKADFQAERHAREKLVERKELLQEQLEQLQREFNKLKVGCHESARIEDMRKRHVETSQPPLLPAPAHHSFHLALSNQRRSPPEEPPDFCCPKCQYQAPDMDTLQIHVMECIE

Experiments:
Format in all cases: cell-based
Conditions in all cases: Calvarial osteoblast
[1] = molecular target: T1, I-kappa-B kinase (Rattus norvegicus) (UniProt Q9QY78+G3V926+Q6TMG5); experiment: Inhibition of IKK in Sprague-Dawley rat calvarial osteoblasts assessed as reduction in TNFalpha-induced beta-catenin degradation by measuring ratio of beta-catenin level to beta-actin level at 100 pM after 24 hrs by Western blot analysis
[2] = molecular target: T1, I-kappa-B kinase (Rattus norvegicus); experiment: Inhibition of IKK in Sprague-Dawley rat calvarial osteoblasts assessed as reduction in TNFalpha-induced IkBalpha phosphorylation by measuring ratio of phosphorylated IkBalpha level to beta-actin level at 100 pM after 24 hrs by Western blot analysis
[3] = molecular target: T1, I-kappa-B kinase (Rattus norvegicus); experiment: Inhibition of IKK in TNFalpha-simulated Sprague-Dawley rat calvarial osteoblasts assessed as ratio of Bcl-xL level to beta-actin level at 100 pM after 24 hrs by Western blot analysis
[4] = molecular target: T1, I-kappa-B kinase (Rattus norvegicus); experiment: Inhibition of IKK in TNFalpha-simulated Sprague-Dawley rat calvarial osteoblasts assessed as ratio of Bcl2 level to beta-actin level at 100 pM after 24 hrs by Western blot analysis
[5] = molecular target: T1, I-kappa-B kinase (Rattus norvegicus); experiment: Inhibition of IKK in Sprague-Dawley rat calvarial osteoblasts assessed as reduction in TNFalpha-induced NFkB signaling by measuring ratio of cytosolic p65 level to beta-actin level at 100 pM after 24 hrs by Western blot analysis
[6] = molecular target: T1, I-kappa-B kinase (Rattus norvegicus); experiment: Inhibition of IKK in TNFalpha-simulated Sprague-Dawley rat calvarial osteoblasts assessed as ratio of IkBalpha level to beta-actin level at 100 pM after 24 hrs by Western blot analysis
[7] = molecular target: T1, I-kappa-B kinase (Rattus norvegicus); experiment: Inhibition of IKK in Sprague-Dawley rat calvarial osteoblasts assessed as reduction in TNFalpha-induced NFkB signaling by measuring ratio of nuclear p65 level to beta-actin level at 100 pM after 24 hrs by Western blot analysis
[8] = molecular target: T1, I-kappa-B kinase (Rattus norvegicus); experiment: Inhibition of IKK in TNFalpha-simulated Sprague-Dawley rat calvarial osteoblasts assessed as ratio of Bax level to beta-actin level at 100 pM after 24 hrs by Western blot analysis

Ratio [1]: 0.77
Ratio [2]: 1.21
Ratio [3]: 1.52
Ratio [4]: 1.59
Ratio [5]: 1.2
Ratio [6]: 1.23
Ratio [7]: 1.08
Ratio [8]: 0.83
SMILES: CCOC(=O)c1cc2c([nH]c3ccccc32)c(C(c2nnnn2C(C)(C)C)N2CCN(C)CC2)n1 (stereo not drawn)
